# This is a selection; strong and weak results do not stand in their true shares. The source made the active and inactive calls. Rule as the data show it: active = inhibition above about 37%; inactive = the rest.
# Amino acid sequences for entries named in this document (tags omitted).
# UniProt P63165, whole entry: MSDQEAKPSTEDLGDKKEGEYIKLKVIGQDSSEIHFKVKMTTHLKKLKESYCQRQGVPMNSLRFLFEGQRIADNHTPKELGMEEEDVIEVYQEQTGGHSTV
# Target: Small ubiquitin-related modifier 1 (Homo sapiens) (UniProt P63165)
# Assay: SUMO1 binding to interaction partners, disruption – biochemical, uHTS, primary screen (AID 602429)
# Conditions: SUMO1 binding to a labelled peptide, TR-FRET, 1 h; at 20 µM; hits give high values
row,Compound,inhibition
1,O=C(NCC1(N2CCCCC2)CCCCC1)c1cccc(C(F)(F)F)c1,inactive: 3.52%
2,CCC(c1nnnn1C(C)(C)C)N1CCC(n2c(=O)[nH]c3ccccc32)CC1 (stereo not drawn),inactive: 1.02%
3,O=C(NCC1(N2CCOCC2)CCCCC1)c1cc(F)c(F)cc1Cl,inactive: 5.03%
4,COc1cc(OC)c(C(=O)NCC2(N(C)C)CCCCC2)cc1OC,inactive: -0.683%
5,CCCCn1nnnc1C(c1ccnc2ccccc12)N1CCC(n2c(=O)[nH]c3ccccc32)CC1 (stereo not drawn),inactive: -2.38%
6,CC(C)c1ccc(NC2CCN(C(=O)OC(C)(C)C)CC2)cc1,inactive: 3.69%
7,CCCCn1nnnc1C(c1ccccc1OC(F)(F)F)N1CCC(n2c(=O)[nH]c3ccccc32)CC1 (stereo not drawn),inactive: 2.35%
8,CN(C)c1cccc(C(=O)NCC2(N3CCCCC3)CCCCC2)c1,inactive: -1.18%
9,COc1ccc(CN(CCCl)CCCl)cc1Cl,inactive: 1.95%
10,COc1ccc(C(c2nnnn2C2CCCC2)N2CCC(n3c(=O)[nH]c4ccccc43)CC2)cc1 (stereo not drawn),inactive: 9.04%
11,CCCOc1ccc(C(=O)NCC2(N(C)C)CCCCC2)cc1OC,inactive: 0.693%
12,Cc1ccc(C(=O)NCC2(N(C)C)CCCCC2)o1,inactive: -1.71%
13,CN1CCC(Nc2cccc(F)c2)CC1,inactive: 1.69%
14,O=C(NCC1(N2CCCCC2)CCCCC1)c1cncc(Br)c1,inactive: -0.343%
15,Cc1cccc(NC2(C#N)CCN(Cc3ccccc3)CC2)c1,inactive: 4.83%
16,CSc1ccccc1C(=O)NCC1(N2CCCCC2)CCCCC1,inactive: -2.19%
17,CC(C)(C)OC(=O)N1CCC(N(C(=O)c2ccccc2)c2ccc(F)cc2)CC1,inactive: 5.99%
18,COc1ccc(C(=O)NCC2(N3CCCCC3)CCCCC2)c(OC)c1OC,inactive: -1.14%
19,CCC(c1nnnn1C1CCCC1)N1CCC(n2c(=O)[nH]c3ccccc32)CC1 (stereo not drawn),inactive: -1.62%
20,COc1ccc(C(=O)NCC2(N3CCCCC3)CCCCC2)cc1,inactive: -3.14%
21,O=C(NCC1(N2CCCCC2)CCCCC1)c1cccs1,inactive: -12.6%
22,CCCCn1nnnc1C(CC)N1CCC(n2c(=O)[nH]c3ccccc32)CC1 (stereo not drawn),inactive: -4.22%
23,CCCCn1nnnc1C(c1cccs1)N1CCC(n2c(=O)[nH]c3ccccc32)CC1 (stereo not drawn),inactive: -0.199%
24,O=C(NCC1(N2CCCCC2)CCCCC1)c1ccc(=O)[nH]c1,inactive: 0.265%

row,Compound,inhibition
1,COc1ccc(Cl)cc1C(=O)NCC1(N2CCOCC2)CCCCC1,inactive: 0.126%
2,N#CC1(Nc2ccccc2)CCN(Cc2ccccc2)CC1,inactive: 6.63%
3,O=C(NCC1(N2CCCCC2)CCCCC1)c1ccc(Cl)s1,inactive: 4.08%
4,O=C(OC1CN2CCC1CC2)C1c2ccccc2Oc2ccccc21 (stereo not drawn),inactive: 8.72%
5,O=c1[nH]c2ccccc2n1C1CCN(C(c2cc3ccccc3o2)c2nnnn2C2CCCCC2)CC1 (stereo not drawn),inactive: -3.78%
6,CCCCn1nnnc1C(c1ccc(OC)cc1)N1CCC(n2c(=O)[nH]c3ccccc32)CC1 (stereo not drawn),inactive: 4.69%
7,CCOC(=O)N1CCC(Nc2ccc(OC)cc2)CC1,inactive: -1.74%
8,Cc1cc(C)cc(N(C(=O)c2ccccc2)C2CCN(C(=O)OC(C)(C)C)CC2)c1,inactive: 0.946%
9,O=C(NCC1(N2CCCCC2)CCCCC1)c1ccc(Cl)nc1,inactive: -6.47%
10,O=c1[nH]c2ccccc2n1C1CCN(C(c2ccccc2OC(F)(F)F)c2nnnn2C2CCCCC2)CC1 (stereo not drawn),inactive: 0.654%
11,O=C(NCC1(N2CCOCC2)CCCCC1)c1cc2ccccc2o1,inactive: -2.52%
12,COc1ccc(NC2CCN(CCc3ccccc3)CC2)c(OC)c1,inactive: -2.37%
13,CCOC(=O)N1CCC(Nc2ccc(F)cc2)CC1,inactive: 2.91%
14,O=P1(N(CCCl)CCCl)SCCCS1,inactive: 2.49%
15,CCCCn1nnnc1C(c1cc2ccccc2o1)N1CCC(n2c(=O)[nH]c3ccccc32)CC1 (stereo not drawn),inactive: 10.3%
16,CCCCOc1ccc(C(=O)NCC2(N3CCOCC3)CCCCC2)cc1,inactive: -0.56%
17,O=C(NCC1(N2CCCCC2)CCCCC1)c1ccc(F)cc1,inactive: -4.06%
18,O=C1CCN(Cc2ccccc2)CC1,inactive: -8.59%
19,CC(C)(C)n1nnnc1C(c1ccccc1)N1CCC(n2c(=O)[nH]c3ccccc32)CC1 (stereo not drawn),inactive: 3.41%
20,CCOc1ccc(C)cc1CN(CCCl)CCCl,inactive: -29%
21,CCOC(=O)N1CCC(Nc2cccc(C)c2)CC1,inactive: 1.5%
22,COc1cc(C(=O)NCC2(N(C)C)CCCCC2)ccc1OC(F)F,inactive: -3.76%
23,O=c1[nH]c2ccccc2n1C1CCN(C(c2cccc3ccccc23)c2nnnn2C2CCCC2)CC1 (stereo not drawn),inactive: 4.14%
24,O=c1[nH]c2ccccc2n1C1CCN(C(c2ccccc2)c2nnnn2C2CCCCC2)CC1 (stereo not drawn),inactive: 6.55%

# From PubChem BioAssay AID602429 (Sanford-Burnham Center for Chemical Genomics, 2012)
